{"source": "patent US10081660B2", "about": "“Polynucleotide, polypeptide with immunosuppressive activity, expression cassette, expression vector, host cell, pharmaceutical composition, methods for producing a polypeptide with immunosuppressive activity and for preventing or treating conditions that require immunosuppression, and use of a …” (FUNDAÇÃO BUTANTAN, priority 2013, dated 2018)", "test_system": "HIII mice", "assay": "Immunosuppressive activity against soluble antigen (human gamma globulin, HGG), anti-HGG antibodies by ELISA", "assay_type": "in vivo", "experimental": "For the invention's polypeptide immunosuppressive activity analysis, Lineage HIII mice constitutively known as good responder to of antibody production are inoculated, intraperitoneally, and immunized with structurally complex and highly immunogenic antigens, such as sheep erythrocytes, a particulate antigen. The animals' serum is then analyzed regarding its hemagglutination activity: the lower is the hemagglutinating effect; the higher is the immunosuppressive capacity of the evaluated compound. The immunosuppressive activity can also be evaluated against a soluble antigen, such as human gamma globulin (HGG), adsorbed in aluminum hydroxide, and the antibodies titer determined by ELISA.\nThe immunosuppressive activity of the recombinant polypeptide was also tested for soluble antigens. […] Titers were determined by ELISA and calculated considering the highest dilution of experimental sera whose O.D. (optical density) was five times higher than those obtained for normal serum at the same dilution. […]\nThe immunosuppressive activity of the synthetic polypeptide P2 (SEQ ID NO: 5) and P6 (SEQ ID NO: 9) was evaluated against HGG, taking into account immunosuppression time after preventive treatment and antigen inoculation. […] O.D. values obtained from the 1:500 dilution were presented herein as average+standard deviation and were statistically analyzed by Student t test. […]"}
{"molecule": "recombinant polypeptide: SEQ ID NO: 2 plus six histidine residues, T7 phage protein 10 portion and enterokinase site; approximately 30 kDa, expressed in E. coli (protein) MRGSHHHHHHGMASMTGGQQMGRDLYDDDDKDRWGSELFSQKYIELVVVADHGMFTKYNGNLNTIRTRVHEIVNTLNGFYRSLNIHISLTDLEIWSNQDLINVQSAAADTLKTFGEWRERVLLNRISHDNAQLLTAIDLADNTIGIAYTGGMCYPKNSVGIVQDHSPKTLLIAVTMAHELGHNLGMKHDENHCHCSASFCIMPPSLSEGPSYEFSDCSKDYYEMFLTKRKPQCILNKPWYHGIRSLIRLLTKPERKLSWLLPPLSNN", "values": [{"measurement": "suppression of anti-HGG antibody production", "setting": "50 μg intraperitoneally, HGG on Al(OH)3 (10 μg/animal) after 0, 24 or 72 hours", "value": "induced in a prophylactic and antigen-specific manner until 24 hours after the treatment"}, {"measurement": "inhibition of anti-HGG antibody production", "setting": "P6 3 μg/animal or recombinant polypeptide 50 μg/animal, HGG in Al(OH)3 after 24 hours", "value": "inhibition of anti-HGG antibody production"}]}
